Data on 1 molecule can be found in patent US8617516B2, “Universal anchor peptide for nanoparticles” (Washington University, priority 2008, dated 2013).

Usually IC50 stands for the concentration that gives 50% inhibition.

Each structure is given as a SMILES string.

In the test the test system is 2F2B mouse endothelial cells. Briefly: XTT cell viability assay (cytotoxicity of peptides). Conditions: 2F2B cells, 3 hours of treatment at 37° C. It counts as cell-based. The procedure:
For each peptide, cytotoxicity was assessed in 2F2B mouse endothelial cells by the XTT cell viability assay (Biotium, Hayward, Calif.). Cells were seeded in 96-well plates at 10,000 cells/well 24 hours before treatment with melittin and mutated melittins at selected concentrations. After 3 hours of treatment at 37° C., 25 μl of activated XTT solution was added to each well and incubated at 37° C. for 5 hours. After 5 hours of incubation, plates were gently shaken to achieve even dye distribution. The absorbances of the samples were measured by a microplate reader (Biorad, Model 550, Hercules, Calif.) at a wavelength of 450 nm. Background was subtracted and the results were normalized to untreated control cells.
On the technique in general: Formazan colour is commonly taken as a measure of viable cells.

`CC[C@H](C)[C@H](NC(=O)CN)C(=O)NCC(=O)N[C@@H](C)C(=O)N[C@H](C(=O)N[C@@H](CC(C)C)C(=O)N[C@@H](CCCCN)C(=O)N[C@H](C(=O)N[C@@H](CC(C)C)C(=O)N[C@H](C(=O)N[C@H](C(=O)NCC(=O)N[C@@H](CC(C)C)C(=O)N1CCC[C@H]1C(=O)N[C@@H](C)C(=O)N[C@@H](CC(C)C)C(=O)N[C@H](C(=O)N[C@@H](CO)C(=O)N[C@@H](Cc1c[nH]c2ccccc12)C(=O)N[C@H](C(=O)N[C@@H](CCCCN)C(=O)N[C@@H](CCCNC(=N)N)C(=O)N[C@@H](CCCCN)C(=O)N[C@@H](CCCNC(=N)N)C(=O)N[C@@H](CCC(N)=O)C(=O)N[C@@H](CCC(N)=O)C(N)=O)[C@@H](C)CC)[C@@H](C)CC)[C@@H](C)O)[C@@H](C)O)C(C)C)C(C)C` [MMLT, reference compound] came in with an IC50 of 2.36 ± 0.23 µM.
